Only a part is listed here, and it is no random draw. The source made the active and inactive calls. Cut-off read from the data, not from the text of the source: active = activity change below about -30%; inconclusive = mostly about -25% to -30%; inactive = weaker than that.
These molecules were tested against L-lactate dehydrogenase A chain (Homo sapiens) (UniProt P00338) (assay: qHTS assay for inhibitors of human lactate dehydrogenase). Details: purified LDHA, NADH/diaphorase-resazurin fluorescence; hits give low values.
From the text: LDH is a key glycolytic enzyme that catalyzes the final step in the glycolytic pathway, reducing pyruvate to lactate and regenerating NAD+ equivalents necessary for continued glycolysis. LDHA has been linked to the carcinogenesis and malignancy in numerous forms of cancers and many other diseases. Consequently, both pharma and academia have invested in significant research efforts to identify small molecule therapeutics. Such attempts have been stalled or abandoned due to limited success in discovering potent and drug-like inhibitors that can be utilized to validate LDHA in vivo as a drug target, a necessary step toward advancing such a molecule towards the clinic Towards this goal we designed and performed a quantitative high-throughput screening (qHTS) campaign to discover novel compounds that are potent inhibitors of LDHA enzyme activity and cancer cell line growth.
The assay was optimized to 1536-well plates. Briefly, 3 µL of human lactate dehydrogenase 5 (#A38558H, Meridian Life Science, Inc., Memphis, TN) in LDH assay buffer (200 mM Tris HCl pH 7.4, 100 microM EDTA and 0.01% Tween-20) was added to a black solid bottom 1536-well assay plate (Greiner Bio-One) using a BioRAPTR FRD dispenser (Beckman Coulter, Brea, CA). A 1536-well pintool dispenser outfitted with 20 nL pins (Wako Automation, San Diego, CA) was used to transfer 23 nL of DMSO-solubilized compound (both library and vehicle controls) to each 1536-well assay plate. Following compound transfer, 1 µL of substrate solution containing NADH and sodium pyruvate (Sigma-Aldrich, St. Louis, MO) in LDH assay buffer was dispensed via BioRAPTR FRD to initiate the reaction. Final concentrations in the 4 microL reaction volume were 2 nM LDHA enzyme, 0.06 mM NADH and 0.2 mM sodium pyruvate. Following a 5 minute incubation period at room temperature, 1 µL of detection reagent (C. kluyveri diaphorase (Sigma-Aldrich) and resazurin sodium salt (Sigma-Aldrich) in LDH assay buffer) was added to a total volume of 5 µL. Final concentrations of detection reagents were 0.133 mg/mL diaphorase and 37 µM resazurin. Plates were immediately transferred to a ViewLux microplate imager (PerkinElmer, Waltham, MA), and any resulting resorufin fluorescence was measured (ex540, em590 nm) at 0 and 20 minutes. Fluorescence was normalized using enzyme-free and DMSO-treated control wells on each plate.
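Note: values are at about 110 or 230 µM; plate controls were DMSO wells for no effect and wells without enzyme for full effect.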

Row | Compound | activity change
1 | CCOC(=O)Nc1cccc([As](=O)(O)O)c1 | inactive: -7.11%
2 | O=[N+]([O-])c1ccc(Nc2ccc(Oc3ccc([N+](=O)[O-])cc3[N+](=O)[O-])cc2)c([N+](=O)[O-])c1 | inactive: -14.2%
3 | O=P(Nc1ccccn1)(c1cccc2ccccc12)c1cccc2ccccc12 | inactive: -6.17%
4 | Cc1cc(SC(NC=O)C(Cl)(Cl)Cl)ncn1 (stereo unspecified) | inactive: -0.838%
5 | CC1CCNP(=O)(N(CCCl)CCCl)O1 (stereo unspecified) | inactive: -4.58%
6 | CCOC(=O)Nc1ccc([As](=O)(O)O)c(O)c1 | inactive: 2.38%
7 | O=C(O)C(O)c1ccc(N(CCCl)CCCl)cc1 (stereo unspecified) | inactive: -1.19%
8 | CCCCOc1ccc(C(=O)NCC2(N3CCCCC3)CCCCC2)cc1OC | inactive: 0.467%
9 | O=C(/C=C/c1ccccc1)NC(Sc1ccc(Cl)cc1)C(Cl)(Cl)Cl (stereo unspecified) | inactive: -0.334%
10 | Cc1cc(SC(NC(=O)c2ccccc2)C(Cl)(Cl)Cl)nc(C(C)C)n1 (stereo unspecified) | inactive: -0.965%
11 | COP(=O)(OC)N1CC1c1ccccc1 (stereo unspecified) | inactive: -4.25%
12 | CCOC(=O)c1ccc(NC(=O)C(C)(CCl)SC)cc1 (stereo unspecified) | inactive: -6.66%
13 | O=C(OC1CN2CCC1CC2)c1cccc([N+](=O)[O-])c1 (stereo unspecified) | inactive: -10.7%
14 | CSc1ccc(Nc2c([N+](=O)[O-])cc([N+](=O)[O-])cc2[N+](=O)[O-])cc1 | inactive: 3.48%
15 | Clc1cccc(NC2=NCC(CBr)S2)c1 (stereo unspecified) | inactive: 2.43%
16 | CCOP(=O)(Nc1cccc2cccnc12)OCC | inactive: 11.3%
17 | CCC(C)N(CC(C)C)C(=S)SC(NC(C)=O)C(Cl)(Cl)Cl (stereo unspecified) | inactive: 0.238%
18 | COP1(=S)c2c(C)nn(CCC#N)c2N=C(c2ccc(F)cc2)N1C (stereo unspecified) | inactive: -17.1%
19 | COC(=O)C1(C)COP(=O)(N2CCCC2)OC1 (stereo unspecified) | inactive: -0.294%
20 | O=C(COc1ccccc1)OC1CN2CCC1CC2 (stereo unspecified) | inactive: -4.86%
21 | O=C(Nc1ccncc1[N+](=O)[O-])c1ccc([N+](=O)[O-])cc1[N+](=O)[O-] | inactive: 0.762%
22 | Cc1cccc(C(=O)NC(Sc2ccccc2)C(Cl)(Cl)Cl)c1 (stereo unspecified) | inactive: 2%
23 | O=C(O)C(=O)c1ccc(N(CCCl)CCCl)cc1 | inactive: -2.39%
24 | COc1ccc(N/C(=N/P(=O)(N2CCOCC2)N2CCOCC2)N2CCOCC2)cc1 | inactive: -1.88%
25 | O=[N+]([O-])c1cc(Oc2ccc([N+](=O)[O-])cc2C(F)(F)F)cc([N+](=O)[O-])c1 | inactive: -2.24%
26 | O=C(OC1CN2CCC1CC2)C12CC3CC(CC(C3)C1)C2 (stereo unspecified) | inactive: -5.85%

Row | Compound | activity change
27 | Cc1cc(=O)[nH]c(N[N+](=O)[O-])n1 | inactive: -3.6%
28 | Cc1c2c(nc3ccccc13)SC(C(Cl)Cl)C2 (stereo unspecified) | inactive: -8.63%
29 | COc1ccc2nc(NP(=O)(c3ccccc3)c3ccccc3)sc2c1 | inactive: -9.94%
30 | COc1cc(I)ccc1[As](=O)(O)O | inactive: -14.3%
31 | O=P1(N(CCCl)CCCl)OCCCN1CCCl (stereo unspecified) | inactive: -8.29%
32 | O=P1(N(CCCl)CCCl)Nc2ccccc2N1 | inactive: 6.89%
33 | CC(C)c1ccc(OP(=O)(Nc2ccccn2)Oc2ccccc2F)cc1 (stereo unspecified) | inactive: 2.11%
34 | COC(=O)C1(C)COP(=O)(N2CCCCCC2)OC1 (stereo unspecified) | inactive: -5.2%
35 | O=Cc1ccc(NCCCl)cc1 | inactive: -16.3%
36 | ClCCSc1nnc(-c2cccnc2)o1 | inactive: -5.32%
37 | O=C(OC1CN2CCC1CC2)c1cccc2[nH]cnc12 (stereo unspecified) | inactive: -10.7%
38 | CCN(CC)C(=S)SC(NC=O)C(Cl)(Cl)Cl (stereo unspecified) | inactive: 2.63%
39 | CC(C)NC(=O)NP(=O)(Oc1ccccc1)Oc1ccccc1 | inactive: -3.07%
40 | O=[N+]([O-])c1cc([N+](=O)[O-])c(-c2ccn[nH]2)s1 | inactive: 0.614%
41 | O=C(NC(Sc1ccc(Cl)cc1)C(Cl)(Cl)Cl)c1ccccc1 (stereo unspecified) | inactive: 12.3%
42 | C[As](=O)(O)c1cccc(C(=O)O)c1 | inactive: -12.8%
43 | O=[As](O)(c1ccc(O)cc1)c1ccccc1O | inactive: 3.6%
44 | O=C(NC(Sc1ccccc1)C(Cl)(Cl)Cl)c1ccc(Cl)cc1 (stereo unspecified) | inactive: -0.642%
45 | COc1cc(C(=O)NCC2(N3CCOCC3)CCCCC2)ccc1OCC(C)C | inactive: -1.22%
46 | O=[N+]([O-])c1ccc(-c2cc([N+](=O)[O-])c(O)c([N+](=O)[O-])c2)cc1 | inactive: 14.9%
47 | Fc1ccc(CNC2=NCC(CBr)S2)cc1 (stereo unspecified) | inactive: -6.24%
48 | Cc1ccc2nc3c(c(C)c2c1)CC(C(Cl)Cl)S3 (stereo unspecified) | inactive: 9.98%
49 | [N-]=[N+]=NC1CCCCC1NC(=O)c1cc([N+](=O)[O-])cc([N+](=O)[O-])c1 (stereo unspecified) | inactive: 5.42%
50 | Cc1ccc(OP(=O)(Nc2ccc([N+](=O)[O-])cn2)Oc2ccc(C)cc2)cc1 | inactive: -3.24%
51 | ClCCN(CCCl)c1ccc(CC2C=CC=C2)cc1 | inactive: 5.95%
52 | NC(=O)Nc1ccc([As](=O)(O)O)cc1 | inactive: -3.05%

Row | Compound | activity change
53 | Cc1ccc(C(=O)NC(Sc2ccccc2)C(Cl)(Cl)Cl)cc1 (stereo unspecified) | inactive: 1.23%
54 | CN(C)C(=O)c1cc([N+](=O)[O-])cc2c1-c1c(cc([N+](=O)[O-])cc1[N+](=O)[O-])C2=O | inactive: 51%
55 | O=[N+]([O-])c1ccc2c(c1)nnn2O | inactive: -0.61%
56 | CN(C(=O)Cc1ccc(Cl)c(Cl)c1)[C@H]1CC[C@@]2(CCCO2)C[C@@H]1N1CCCC1 | inactive: -7.88%
57 | N#CCCN(C(=O)COC(=O)C(O)(c1ccccc1)c1ccccc1)c1ccc(F)cc1 | inactive: -4.83%
58 | CN(C(=O)Cc1ccccc1)[C@@H]1CC[C@]2(CCCO2)C[C@H]1N1CCCC1 | inactive: -10.3%
59 | CCOP1(=S)c2c(C)nn(CCC#N)c2N=C(c2ccc(F)cc2)N1C (stereo unspecified) | inactive: 1.39%
60 | CS(=O)(=O)c1cc([N+](=O)[O-])c2no[n+]([O-])c2c1 | inactive: 52.1%
61 | CCOP1(=S)c2c(C)nn(CCC#N)c2N=C(c2ccccc2F)N1C (stereo unspecified) | inactive: -2.55%
62 | O=P(Nc1nccs1)(c1ccccc1)c1nc2ccccc2s1 (stereo unspecified) | active: -76.5%
63 | O=P(Nc1nccs1)(Oc1ccccc1)Oc1ccccc1 | inactive: -2.3%
64 | Nc1ccccc1[As](=O)(O)c1ccccc1 | inactive: 2.81%
65 | O=C(O)COc1ccc([As](=O)(O)O)cc1[N+](=O)[O-] | inactive: -5.4%
66 | CCCOP(=S)(Nc1nc(N)cc(=O)[nH]1)OCCC | inactive: 0.0893%
67 | Cc1ccc(C(=O)NC(Sc2ccc(Cl)cc2)C(Cl)(Cl)Cl)cc1 (stereo unspecified) | inactive: 1.12%
68 | NNc1ccc([N+](=O)[O-])cc1[N+](=O)[O-] | inactive: -7.24%
69 | Nc1cccc2c([As](=O)(O)O)cccc12 | inactive: 8.39%
70 | Cc1ccc(NCCc2c([N+](=O)[O-])cc([N+](=O)[O-])cc2[N+](=O)[O-])cc1 | inactive: 17.9%
71 | COc1cc(C2NCCC3(OCCO3)C2(C)C)cc(OC)c1OC (stereo unspecified) | inactive: -0.494%
72 | CCOP(=O)(Nc1cccc2ccccc12)OCC | inactive: -2.14%
73 | COc1cc(C(=O)NCC2(N3CCOCC3)CCCCC2)cc(Cl)c1OC(C)C | inactive: -6.33%
74 | O=[As](O)(O)c1cccnc1 | inactive: -2.15%
75 | CS(=O)(=O)c1ccc(Cl)c(NC(=O)COC(=O)C(O)(c2ccccc2)c2ccccc2)c1 | inactive: -3.44%
76 | O=C(OC1CN2CCC1CC2)c1ccc(Cl)cc1 (stereo unspecified) | inactive: -8.09%
77 | BrCC1CN=C(Nc2ccccc2)S1 (stereo unspecified) | inactive: 6.5%
78 | Fc1ccc(NC2=NCC(CI)S2)c(F)c1 (stereo unspecified) | inactive: -1.33%

Row | Compound | activity change
79 | O=[As](O)(c1cccc(O)c1)c1cccc(O)c1 | inactive: -0.299%
80 | Cc1cccc(OCC(=O)OC2CN3CCC2CC3)c1 (stereo unspecified) | inactive: -4.09%
81 | COc1ccccc1CNC(=O)COC(=O)C(O)(c1ccccc1)c1ccccc1 | inactive: -6.22%
82 | CC1(CBr)Cn2c(nc3ccccc3c2=O)S1 (stereo unspecified) | inactive: -0.89%
83 | CC(C)/C=N\N=C(\N)N[N+](=O)[O-] | inactive: -2.51%
84 | CN(C(=O)Cc1ccc(Cl)c(Cl)c1)[C@@H]1CCCC[C@H]1N1CCCC1 | inactive: -9.8%
85 | ClCCNC1C2CC3CC(C2)CC1C3 (stereo unspecified) | inactive: 1.92%
86 | CN(CCCl)Cc1cc(Cl)c(NC2=NCCN2)c(Cl)c1 | inactive: -5.53%
87 | CCOP(=O)(Nc1ccc(C)cn1)OCC | inactive: 3.76%
88 | O=P1(Nc2ccccn2)COc2ccccc2OC1 | inactive: -5.88%
89 | CCC1=CC2Cc3nc4ccc(Cl)cc4c(N)c3C(C1)C2 (stereo unspecified) | inactive: -2.12%
90 | CCOP(=O)(NC(=NC(C)c1ccccc1)NC(C)c1ccccc1)OCC (stereo unspecified) | inactive: -2.38%
91 | O=P1(N(CCCl)CCCl)NCCC(C(F)(F)F)O1 (stereo unspecified) | inactive: -6.28%
92 | Clc1n[nH]nc1-c1nn[nH][15n]1 | inactive: 0%
93 | CC(C)(C)C(=O)NC(Sc1ncccn1)C(Cl)(Cl)Cl (stereo unspecified) | inactive: -3.37%
94 | O=P1(Nc2ncccn2)COc2ccccc2OC1 | inactive: -1.9%
95 | Cc1ccc(S(=O)(=O)N(CCCN)CCCc2c(C)nc(N)[nH]c2=O)cc1 | inactive: -4.8%
96 | O=P1(Nc2ccc(Br)cn2)COc2ccccc2OC1 | inactive: -0.644%
97 | NS(=O)(=O)c1cccc(NC(=O)COC(=O)C(O)(c2ccccc2)c2ccccc2)c1 | inactive: 0.207%
98 | O=[As](O)(c1cccs1)c1cccs1 | inactive: -4.3%
99 | Cc1ccc(OCC(=O)OC2CN3CCC2CC3)cc1 (stereo unspecified) | inactive: 1.65%
100 | Nc1cccc([As](=O)(O)c2ccccc2)c1 | inactive: -7.45%
101 | N#Cc1c(-c2ccc(-c3no[n+]([O-])c3C#N)cc2)no[n+]1[O-] | inactive: -7.49%

Source: PubChem BioAssay AID1347041 (National Center for Advancing Translational Sciences (NCATS), 2019)
